The structures appear in SMILES notation. Only a part is listed here, and it is no random draw. Active and inactive are the calls of the source. Rule as the data show it: active = max dye-equivalent concentration above about 11 nM; inconclusive = between about 1.1 nM and that limit; inactive = weaker than that.

The test in a line: qHTS Assay for Spectroscopic Profiling in Rhodamine Spectral Region. Conditions: Rhodamine-region fluorescence, 547/598 nm, Tris buffer. The text has this:
NIH Molecular Libraries Screening Centers Network [MLSCN] NIH Chemical Genomics Center [NCGC] […] Occasionally, the artifactual effect may originate from the compound#s own spectral or other biophysical properties which generally tend to track its assay concentration. Pre-screening/profiling the library with respect to the compounds# spectral properties should help one exclude false positives early on. While the most informative fluorescent profiling data set is obtained by performing a full excitation and emission scan of each well by using a monochromator-based plate reader, such an approach is practical only on a very limited scale as scanning each well requires long time. An alternative approach, applied here, is to perform plate reader scans using selected excitation and emission wavelength pairs to generate a multidimensional relational database that correlates compound concentration and the respective relative fluorescence intensity at a given wavelength set. A standard curve of rhodamine present on each plate as six-point concentration series, was used to compute a normalized fluorescence response, termed dye-equivalent concentration, for each compound at each concentration.
NCGC Assay Protocol Summary: Buffer: 100 mM Tris buffer, pH 8.0 Dye standard plate: The wells in columns 1 through 4 of a Kalypsys polypropylene 1536-well compound plate were filled with standard solutions of fluorophore corresponding to the spectral region of interest. Solutions of rhodamine were placed in the following wells: E1, F1: 3 mM, E2, F2: 300 uM, E3, F3: 30 uM, E4, F4: zero (DMSO), G1, H1: 3 uM, G2, H2: […], G3, H3: 300 nM, G4, H4: zero (DMSO). Assay Steps: Six uL of buffer were dispensed to 1536-well Greiner black plates. Compounds and dye standards (23 nL) were transferred via Kalypsys PinTool. The plates were incubated for 15 min at room temperature, and then read on ViewLux (Perkin-Elmer) High-throughput CCD imager using 547 nm and 598 nm excitation and emission filter set. Keywords: NIH Roadmap, MLSCN, MLI, MLSMR, qHTS, NCGC, Rhodamine , Fluorescent Profiling.
For `CCOP1(=S)c2c(C)nn(CCC#N)c2N=C(c2ccccc2F)N1C` (stereo unspecified), the result was inactive.
For the compound `O=[As](O)(O)c1ccc([As](=O)(O)O)cc1`, the outcome was inactive.
For `O=C(CC(=O)c1ccccc1)O[C@H]1CN2CCC1CC2` the value was “inactive”; for `NS(=O)(=O)Cc1ccc([As](=O)(O)O)cc1`, “inactive”.
On to `CN(C(=O)Cc1ccc(Cl)c(Cl)c1)[C@@H]1CC[C@@]2(CCCO2)C[C@H]1N1CCCC1`, for which the call was inactive.
On to `Cc1cccc(OCC(=O)OC2CN3CCC2CC3)c1` (stereo unspecified), for which the compound was called inactive.
With `CN(C(=O)Cc1ccc(Cl)c(Cl)c1)[C@@H]1CCCC[C@H]1N1CCCC1`, the call was inactive.
For `Cc1nc2ccc3ccccc3c2s1.O=[N+]([O-])c1cc([N+](=O)[O-])c(O)c([N+](=O)[O-])c1` the value was “inactive”; for `O=P1(Nc2ccccn2)COc2ccccc2OC1`, “inactive”; for `CN(CCCl)Cc1cc(Cl)c(NC2=NCCN2)c(Cl)c1`, “inactive”.
Turning to `Clc1n[nH]nc1-c1nn[nH][15n]1`, the compound was called inactive.
Regarding `O=P1(Nc2ncccn2)COc2ccccc2OC1`, the call was inactive.
Take `O=P1(Nc2ccc(Br)cn2)COc2ccccc2OC1`: the result was inactive.
For `Cc1ccc(OCC(=O)OC2CN3CCC2CC3)cc1` (stereo unspecified) the value was “inactive”.
Take `Cc1nn(-c2ccccc2)c2c1P(=O)(N1CCOCC1)N(C)C(c1ccccc1)=N2` (stereo unspecified): the result was inactive.
For `CP(=S)(Nn1cnnc1)Oc1ccccc1` (stereo unspecified) the value was “inactive”.
For `N1=C(c2nnc(-c3nn[nH]n3)nn2)NNN1` the value was “inactive”; for `COP1(=S)c2c(C)nn(CCC#N)c2N=C(c2ccc(F)cc2)N1C` (stereo unspecified), “inactive”.
For the compound `O=C(O)[C@@H](O)c1ccc([As](=O)(O)O)cc1`, the call was inactive.
For `CP(=O)(NC(=O)Nc1ccccc1)Oc1ccccc1` (stereo unspecified) the value was “inactive”; for `O=C(COc1ccccc1)OC1CN2CCC1CC2` (stereo unspecified), “inactive”.
Take `O=C(OC1CN2CCC1CC2)C12CC3CC(CC(C3)C1)C2` (stereo unspecified): the call was inactive.
On to `NC(=O)Nc1cc([As](=O)(O)O)cc(I)c1O`, for which the compound was classed as inactive.
For `O=[As]c1ccc(S(=O)(=O)NCCO)cc1` (stereo unspecified) the value was “inactive”; for `[N-]=[N+]=NCC(N)=O`, “inactive”; for `COc1ccccc1OP(C)(=O)Nc1ccc(C)cc1` (stereo unspecified), “inactive”.

(Values after PubChem BioAssay AID594 (National Center for Advancing Translational Sciences (NCATS), 2007).)
